Source: PubChem BioAssay AID1671190 (National Center for Advancing Translational Sciences (NCATS), 2021)
The entries are a selection whose mix differs from that of the whole data set. Inconclusive results are not listed. Calls of active or inactive are those of the source. Calls come from the whole dose curve; as a rule, active = well fitted inhibition curve with a large enough effect; inconclusive = small, poorly fitted or top-dose-only effect, or another doubt; inactive = no such curve, though single readings can be large or run the other way.
% is set by controls: 0 for no effect and ±100 for the full control effect.

Protein sequences, listed by entry. Tags and fused reporters are not part of them.
UniProt P18054, whole entry: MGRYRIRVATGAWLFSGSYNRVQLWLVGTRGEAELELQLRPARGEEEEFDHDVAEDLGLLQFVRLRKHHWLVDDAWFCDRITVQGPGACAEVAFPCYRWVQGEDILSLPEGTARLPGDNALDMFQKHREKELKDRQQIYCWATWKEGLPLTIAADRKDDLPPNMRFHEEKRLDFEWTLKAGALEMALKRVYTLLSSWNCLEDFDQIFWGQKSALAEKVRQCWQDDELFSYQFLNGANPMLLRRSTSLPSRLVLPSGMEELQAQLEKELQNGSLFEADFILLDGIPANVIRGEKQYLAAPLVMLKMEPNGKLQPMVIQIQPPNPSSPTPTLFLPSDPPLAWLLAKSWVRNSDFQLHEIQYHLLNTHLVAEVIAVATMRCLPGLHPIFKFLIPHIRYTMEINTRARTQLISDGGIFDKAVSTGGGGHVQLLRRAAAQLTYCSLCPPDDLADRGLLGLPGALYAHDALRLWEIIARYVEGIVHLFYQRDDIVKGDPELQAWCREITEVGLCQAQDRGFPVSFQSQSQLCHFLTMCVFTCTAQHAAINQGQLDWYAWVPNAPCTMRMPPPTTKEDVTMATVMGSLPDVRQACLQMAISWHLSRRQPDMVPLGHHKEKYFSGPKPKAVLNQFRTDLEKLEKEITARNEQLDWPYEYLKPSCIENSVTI

The molecules below were run against Polyunsaturated fatty acid lipoxygenase ALOX12 (Homo sapiens) (UniProt P18054) (assay: Primary qHTS assay for inhibitors of human arachidonate 12S-lipoxygenase (ALOX12): Round 2). Details: purified 12hLO, xylenol orange hydroperoxide absorbance; at 108 µM (top of the series).
Source text: Assay Provider: Theodore R. Holman Ph.D. University of California, Santa Cruz, California Human lipoxygenase 12hLO is a member of the closely related lipoxygenase family of enzymes which catalyze the site-specific oxidation of arachidonic acid to various hormone precursor molecules and as such is a candidate for drug development in a variety of disease areas, such as cancer and inflammation. Inhibition of 12hLO activity was screened by utilizing arachidonic acid as a substrate. The extent of hydroperoxide product formation was measured by a secondary chromogenic reaction in which xylenol orange (XO, Sigma-Aldrich, cat. number 39,818-7) reacts with the ferric ions produced from the reaction between the hydroperoxide and ferrous ions. The Fe (III)-XO complex is characterized with red-shifted absorbance at 560 nm. […]
PROTOCOL TABLE SEQUENCE No. (e.g., 1, 2, 3, etc.); […] […] 7; Incubation; 30 min; room temperature 8; Detector; absorbance; Read 1 at 405 nm absorbance using ViewLux (Perkin-Elmer) CCD imager. 9; Detector; absorbance; Read 2 at 573 nm absorbance using ViewLux (Perkin-Elmer) CCD imager. […] 8, 9; Two absorbance readouts were obtained at 405 nm and at 573 nm using a ViewLux high-throughput CCD plate imager (Perkin-Elmer). The 573 to 405 (Read 2 / Read 1) absorbance ratio was used to compute reaction progress.
For `O=[As](O)(c1cccc(O)c1)c1cccc(O)c1`, the activity change, negative = inhibition was inactive: 4.86%.
